# Test results: patent publication US20240199555A1, “APPLICATIONS OF BIASED LIGANDS OF THE SEROTONIN 5-HT7 RECEPTOR FOR THE TREATMENT OF PAIN, MULTIPLE SCLEROSIS AND THE CONTROL OF THERMOREGULATION” (Centre National de la Recherche Scientifique, priority 2021, published 2024)
# Amino acid sequences for entries named in this document (tags omitted). Residues count along the entry.
# UniProt P34969, 1-432: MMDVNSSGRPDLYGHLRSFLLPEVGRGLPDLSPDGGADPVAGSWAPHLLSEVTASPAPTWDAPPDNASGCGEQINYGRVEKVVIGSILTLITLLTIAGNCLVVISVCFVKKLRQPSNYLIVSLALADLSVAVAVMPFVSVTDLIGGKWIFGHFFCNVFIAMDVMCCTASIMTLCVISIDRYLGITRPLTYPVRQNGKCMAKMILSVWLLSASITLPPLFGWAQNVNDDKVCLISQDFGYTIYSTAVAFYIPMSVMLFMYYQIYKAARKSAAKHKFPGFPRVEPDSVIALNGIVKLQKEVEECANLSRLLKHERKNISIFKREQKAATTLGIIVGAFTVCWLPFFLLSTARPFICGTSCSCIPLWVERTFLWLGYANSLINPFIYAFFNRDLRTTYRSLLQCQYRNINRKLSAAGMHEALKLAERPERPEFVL
# UniProt P34969, whole entry, looked up: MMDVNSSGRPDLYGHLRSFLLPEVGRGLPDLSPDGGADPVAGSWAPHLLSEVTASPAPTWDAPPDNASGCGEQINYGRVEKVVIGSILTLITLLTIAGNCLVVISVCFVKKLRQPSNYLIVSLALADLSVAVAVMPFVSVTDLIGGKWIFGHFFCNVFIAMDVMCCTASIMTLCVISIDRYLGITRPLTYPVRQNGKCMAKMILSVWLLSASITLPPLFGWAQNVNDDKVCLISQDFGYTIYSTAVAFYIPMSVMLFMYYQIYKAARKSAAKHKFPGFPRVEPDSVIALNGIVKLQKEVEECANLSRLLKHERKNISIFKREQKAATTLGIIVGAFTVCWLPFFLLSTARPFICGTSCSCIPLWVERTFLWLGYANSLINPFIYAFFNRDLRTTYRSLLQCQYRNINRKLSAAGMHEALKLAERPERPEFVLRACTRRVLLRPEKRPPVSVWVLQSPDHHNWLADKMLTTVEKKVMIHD
# Columns and labels:
# Type in all cases: cell-based
# h5-HT7R [1] = target: T1, h5-HT7R (Homo sapiens (Human), UniProt P34969); assay: cAMP accumulation (LANCE cAMP detection kit) in HEK-293 cells stably expressing h5-HT7R; settings: tested alone
# Method: (B) HEK-293 cells stably expressing h5-HT7R were stimulated with 10 nM of 5-CT and increasing concentrations of products for one hour. After cell lysis, cAMP production was quantified by a LANCE cAMP detection kit (Perkin Elmer). […] Data points represent the means±SEM from three independent experiments performed in triplicate. The EC50 and IC50 for each drug was determined using GraphPad Prism software.
# cAMP accumulation was measured with a LANCE™ cAMP detection kit (Perkin-Elmer Life Sciences, Boston, MA, USA). 12 h before experiment cells were starved. Forty-eight h after transfection, cells were harvested in Hank's balanced salt solution (HBSS) containing 5 mM HEPES, 1 mM isobutylmethylxanthine (IBMX) and 0.1% BSA, PH 7.4. After centrifugation (1000×g, 5 min), cells were resuspended in the same buffer (2×10^6 per ml). The ALEXA™ fluor 647 anti-cAMP antibody solution (1 μl) was added to the cell suspension (100 μl) and 5 μl aliquots of the mixture were dispensed in white 384-well microtiter plates (Optiplate, Perkin Elmer). The cells were then stimulated with different drugs. […] After 2 h incubation at room temperature in the dark, the plates were read on a VictorV™ microplate reader (Perkin-Elmer Life Sciences). Concentration/response curves were analyzed using Prism 4 software. […]
# 5-HT7(b) receptors = 5-HT7(b) receptors (Homo sapiens, UniProt P34969); assay: BRET between 5-HT7-RLuc and Venus-mini G proteins (G protein recruitment)
# h5-HT7R [2] = target: T1, h5-HT7R; assay: ERK1/2 and c-SRC phosphorylation by western blot in HEK-293 cells stably expressing h5-HT7R; settings: 10 μM of ligand or increasing concentrations
# Method: (A, B, C, D, E, F) Time course of activation of ERK1/2 after stimulation of HEK-293 cells stably expressing h5-HT7R with various 5-HT7R ligands used at 10 μM. The cells were stimulated for the indicated periods and assayed for detection of phospho ERK1/2 by western blot analysis. […] Representative blots of three independent experiments are illustrated. The histogram on the right of each panel represents the results of densitometric analyses of three independent experiments. Data are means±SEM. * p<0.05; ** p<0.01; *** p<0.001 versus non stimulated cells (NS).
# HEK-293 cells stably expressing h5-HT7R were stimulated with increasing concentrations of 5-CT or Serodolin for 7 minutes. […] Quantification was performed by densitometric analyses from three independent experiments. Analyzed data were plotted versus log concentration for each compounds (A; B) or as bar graph (C) on the right panel. […]
# Treated cells were washed twice with cold PBS and lysed on ice for 30 min in lysis buffer containing 50 mM Tris pH 7.5, 150 mM NaCl, 10 mM EDTA, 1% Triton X-100 and the protease inhibitor cocktail. […] Immunoreactive bands were detected using the Dura detection kit. Protein quantification on blots was performed using Quantity One software (Biorad). […]
# ERK phosphorylation was monitored by western blotting after treatment of cells with 10 μM of ligands at different times ranging from 2 to 60 minutes.
smiles,measurement,setting,value
"CC1CCN(CC[C@H]2CCCN2S(=O)(=O)c2cccc(O)c2)CC1 [SB269970, reference compound]",effect on cAMP response,h5-HT7R [1],inverse agonist effects on cAMP response
same,Gαs recruitment,5-HT7(b) receptors; mGs BRET,behaved as inverse for Gαs recruitment
same,"Gαi, Ga12 or Gαq recruitment","5-HT7(b) receptors; mGsi, mG12, mGsq BRET","neither classical (5-CT, SB 269970) nor biased 5-HT7R ligands (Serodolin) were able to induce the Gαi, Ga12 or Gαq recruitment"
same,induction of ERK phosphorylation,h5-HT7R [2],none of them were able to induce ERK activation
